{"source": "patent US11407977B2", "about": "“Tissue scaffolds for electrically excitable cells” (Innovative Surface Technologies, Inc., priority 2013, dated 2022)", "molecules": {"B1": {"name": "conjugated BMP-2: BMP-2 immobilized on carboxy-functionalized photoreactive PCL nanofibers through EDC/NHS coupling (conjugate, UniProt P12643 283-396, looked up)", "Bone morphogenetic protein 2": "QAKHKQRKRLKSSCKRHPLYVDFSDVGWNDWIVAPPGYHAFYCHGECPFPLADHLNSTNHAIVQTLVNSVNSKIPKACCVPTELSAISMLYLDENEKVVLKNYQDMVVEGCGCR", "modifications": "immobilized on photoreactive PCL nanofibers"}}, "system": "mesenchymal stem cells", "assay": "Alkaline phosphatase (ALP) activity of cells on BMP-2-conjugated nanofiber scaffolds", "format": "cell-based", "conditions": "day 3, day 7 and day 14 of culture; compared with soluble BMP-2 (500 ng/ml)", "description": "Muscle myoblast cells. […] The scaffolds were prepared as described in Example 1. An amount of the formed nanofibrous mesh was immersed in 20 ml of 50 mg/ml PAA aqueous solution for 30 minutes in a quartz round dish (Quartz Scientific, Inc., Fairport Harbor, Ohio). Mild agitation was applied to remove the air bubbles trapped in the nanofibers. Two minutes of UV irradiation was then applied to the mixture using a UVM400 ultraviolet lamp (Harland Medical, Eden Prairie, Minn., distance from the light source was 8 inches). The nanofiber mesh was flipped over and UV illumination applied again. The coated nanofiber meshes were rinsed with distilled water three times and washed overnight. The functionalized nanofibers (which now contained carboxy reactive groups) were then lyophilized. […]\nTo assess the bioactivity of immobilized BMP-2, alkaline phosphatase (ALP) activity on mesenchymal stem cells seeded on the conjugated scaffolds and on control scaffolds with soluble BMP-2 (500 ng/ml) was determined for day 3, day 7 and day 14 of cell culture. […]\nCells were lysed with 2 ml of extraction reagent (Sigma-Aldrich), and 50 μl of the cell extract and ALP standard solutions were incubated with 100 μl of p-nitrophenyl phosphate solution at room temperature for one hour. The p-nitrophenol production was measured at 405 nm. ALP expression was calculated based on a standard curve."}
{"molecule": "B1", "values": [{"measurement": "bioactivity of immobilized BMP-2 (ALP activity)", "result": "retained activity at similar levels to soluble protein"}]}
